Ab-14 light chain CDR variants: yeast mating affinities

Binding partner: SARS-CoV-2 spike HR2 peptide, sequence PDVDLGDISGINAS.

Parent: Ab-14, a human scFv built as VH, three GGGGS repeats, VL. Only the CDRs of the light chain vary.
VH: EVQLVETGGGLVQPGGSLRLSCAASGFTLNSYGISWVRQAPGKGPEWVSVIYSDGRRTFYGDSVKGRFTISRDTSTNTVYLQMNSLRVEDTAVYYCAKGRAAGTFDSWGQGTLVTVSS
VL: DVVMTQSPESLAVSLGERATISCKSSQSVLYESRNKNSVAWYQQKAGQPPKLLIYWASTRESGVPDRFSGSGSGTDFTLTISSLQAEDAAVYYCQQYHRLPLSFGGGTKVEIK

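The parent was found by panning a naive human phage display library on the peptide. Library AAYL50 holds single substitutions and randomly drawn double and triple substitutions in the CDRs. Affinity was read by AlphaSeq, a pooled yeast mating assay with surface-displayed partners. The frequency of each diploid, read from paired DNA barcodes, reflects how well the two displayed proteins bind. Each replicate has its own calibration line, from reference interactions of the BCL2 family. Mating was done three times.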

Changes read parent residue, position, new residue, counted from the first residue of the VL shown. All variants listed here change R60 of the VL, counted from its first residue. Values are apparent Kd, the geometric mean of the replicates that gave a signal; lower means stronger binding. An entry "nd" has no value in the source: the pair was not observed among the diploids in any replicate. This suggests poor binding but is not conclusive. As a blank, each scFv also met three strains without target: over library AAYL50, 18% of these pairings were detected, typically at 15 µM and seldom below 970 nM. Also given: how often the same scFv was detected with the empty control strains.

- E32D R60K L100Y = 660 nM (3 of 3 replicates; controls 0 of 9)
- S58A R60A = nd (0 of 3 replicates; controls 2 of 9)
- S33D R34S R60G = 180 nM (3 of 3 replicates; controls 2 of 9)
- K24E S33H R60C = 9.5 µM (1 of 3 replicates; controls 2 of 9)
- N35V N37F R60N = nd (0 of 3 replicates; controls 4 of 9)
- N35W K36D R60D = nd (0 of 3 replicates; controls 1 of 9)
- S26I R60N Y97M = nd (0 of 3 replicates; controls 1 of 9)
- V39C T59A R60H = 13 µM (1 of 3 replicates; controls 0 of 9)
- E32K A57D R60Q = nd (0 of 3 replicates; controls 1 of 9)
- R34S N35Y R60V = 980 nM (3 of 3 replicates; controls 0 of 9)
- L30F R60A P101V = 17 µM (1 of 3 replicates; controls 0 of 9)
- S26F L30M R60V = 300 nM (3 of 3 replicates; controls 0 of 9)
- K24N E32S R60E = 230 µM (1 of 3 replicates; controls 2 of 9)
- Q27G N37F R60G = 130 µM (2 of 3 replicates; controls 2 of 9)
- E32N T59Y R60G = nd (0 of 3 replicates; controls 1 of 9)
- R60A Q95H = 3.6 mM (1 of 3 replicates; controls 4 of 9)
- R60N Q96W L100M = 36 µM (1 of 3 replicates; controls 1 of 9)
- E32R R60V Q96H = 2.0 µM (1 of 3 replicates; controls 1 of 9)
- V29N A57E R60H = nd (0 of 3 replicates; controls 2 of 9)
- V29R Y31F R60S = nd (0 of 3 replicates; controls 2 of 9)
- A57Q R60P H98Q = 150 µM (2 of 3 replicates; controls 4 of 9)
- S58A R60H = 5.4 µM (3 of 3 replicates; controls 3 of 9)
- W56E S58F R60E = 11 µM (1 of 3 replicates; controls 0 of 9)
- K24H Y31K R60Q = nd (0 of 3 replicates; controls 0 of 9)
- S26H N35S R60P = 24 µM (3 of 3 replicates; controls 1 of 9)
- K24W A40G R60D = nd (0 of 3 replicates; controls 1 of 9)
- V39S T59W R60N = 31 µM (1 of 3 replicates; controls 1 of 9)
- S38F R60H L100Q = 31 µM (3 of 3 replicates; controls 5 of 9)
- R60T R99S S103M = nd (0 of 3 replicates; controls 0 of 9)
- S38H R60W E61N = nd (0 of 3 replicates; controls 0 of 9)
- R34A R60V P101Y = nd (0 of 3 replicates; controls 1 of 9)
- K36D R60E H98C = 50 µM (3 of 3 replicates; controls 6 of 9)
- S28E R60H Y97S = nd (0 of 3 replicates; controls 1 of 9)
- N35S R60I Q95Y = nd (0 of 3 replicates; controls 0 of 9)
- S25Q R60I R99G = 1.8 µM (1 of 3 replicates; controls 0 of 9)
- S26C R60F = 610 nM (1 of 3 replicates; controls 1 of 9)
- S58V R60K = 2.5 µM (3 of 3 replicates; controls 4 of 9)
- L30K R60K L100A = 27 µM (2 of 3 replicates; controls 1 of 9)
- N37S T59R R60Q = 31 µM (1 of 3 replicates; controls 4 of 9)
- N37R R60L Q95R = nd (0 of 3 replicates; controls 0 of 9)
- R60L Q96M = nd (0 of 3 replicates; controls 0 of 9)
- R60V Q96P L102Y = 2.0 mM (1 of 3 replicates; controls 1 of 9)
- Y31L R34G R60D = nd (0 of 3 replicates; controls 0 of 9)

Repeated from above, the 4 best binders with a signal in all replicates:

* S33D R34S R60G: 180 nM (3 of 3 replicates; controls 2 of 9)
* S26F L30M R60V: 300 nM (3 of 3 replicates; controls 0 of 9)
* E32D R60K L100Y: 660 nM (3 of 3 replicates; controls 0 of 9)
* R34S N35Y R60V: 980 nM (3 of 3 replicates; controls 0 of 9)

Reference: Engelhart et al. 2022, doi:10.1038/s41597-022-01779-4. File: FLAb, binding data.